Measurements as given in PMC3702509, “Label Free Fragment Screening Using Surface Plasmon Resonance as a Tool for Fragment Finding – Analyzing Parkin, a Difficult CNS Target” (PLoS ONE, 2013).

Tests used:
[1] = molecular target: T1, FL-FLAG-Parkin RT (non-thermal treated) (Homo sapiens, UniProt O60260); experiment: SPR kinetics/affinity on non-thermal treated FL-FLAG Parkin captured by anti-FLAG antibody; settings: 1:1 binding model, Parkin:Ab 3:1, non-thermal treated, read-out: Affinities KD of protein ligands
T1 construct: the entire coding region (residues 1–465) from NM_004562.1 was cloned into pFastBac; made in house; host or cells: Sf9 or Sf21 insect cells (baculovirus)
T1 sequence (O60260 1-465): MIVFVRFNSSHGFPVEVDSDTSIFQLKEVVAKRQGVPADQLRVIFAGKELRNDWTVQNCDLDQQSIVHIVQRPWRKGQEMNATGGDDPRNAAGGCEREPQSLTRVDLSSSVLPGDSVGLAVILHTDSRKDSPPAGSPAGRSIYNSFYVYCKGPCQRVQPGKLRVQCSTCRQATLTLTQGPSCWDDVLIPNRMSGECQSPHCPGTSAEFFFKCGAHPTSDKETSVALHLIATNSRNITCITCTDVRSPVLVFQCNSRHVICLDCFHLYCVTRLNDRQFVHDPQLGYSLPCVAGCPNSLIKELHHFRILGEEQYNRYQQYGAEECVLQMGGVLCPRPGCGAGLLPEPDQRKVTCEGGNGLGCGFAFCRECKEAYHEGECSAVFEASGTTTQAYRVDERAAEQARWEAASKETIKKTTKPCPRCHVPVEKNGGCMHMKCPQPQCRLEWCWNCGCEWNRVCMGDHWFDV
Method: Kinetics and Affinity measurements were performed on a GE Healthcare Biacore T100 or T200 instrument. Anti-FLAG antibody M2 was immobilized on a CM5 sensor chip using standard amine coupling procedure at a concentration of 100 μg/ml to a level of 10000 response units (RU). […] Flow cell 2 contained antibody only to control for non-specific binding of fragments to the antibody, and flow cells 3 and 4 contained antibody and captured Parkin. Untagged Parkin domain R0RBR was immobilized by amine coupling at a concentration of 100 μg/ml in 10 mM acetic acid pH 5.0 using the same running buffer as for anti-FLAG antibody immobilization. […]
(§1) The flow rate was 30μl/min. The time-dependent binding curves were monitored simultaneously. […]
Kinetic and affinity data were solvent corrected (fragments only), reference subtracted and blank subtracted using the Biacore T200 evaluation software V.1. Kinetic constants were determined by curve fitting using a 1∶1 binding model. […] The rate of complex formation (1∶1 interaction) during fragment injection was calculated according to the equation (2): [drawing 2] […] The dissociation phase kd was measured using the rate of decline in RU after the injection stop, when free running buffer is flowing over the surface. Data were simultaneously fitted by the software and the dissociation constant KD calculated using equation (3). […]

[2] = molecular target: T2, FL-FLAG-Parkin 56°C (thermal treated) (Homo sapiens, UniProt O60260); experiment: SPR kinetics/affinity on thermal treated FL-FLAG Parkin captured by anti-FLAG antibody; settings: 1:1 binding model, thermal treated 56°C, read-out: Affinities KD of protein ligands
T2 construct: the entire coding region (residues 1–465) from NM_004562.1 was cloned into pFastBac; made in house; host or cells: Sf9 or Sf21 insect cells (baculovirus)
T2 sequence (O60260 1-465): T1 sequence (O60260 1-465)
Method: Kinetics and Affinity measurements were performed on a GE Healthcare Biacore T100 or T200 instrument. Anti-FLAG antibody M2 was immobilized on a CM5 sensor chip using standard amine coupling procedure at a concentration of 100 μg/ml to a level of 10000 response units (RU). […] The running buffer for both methods was 10 mM HEPES pH 7.4, 150 mM NaCl, 0.005% Tween-20, 4 mM reducing agent. […] Flow cell 2 contained antibody only to control for non-specific binding of fragments to the antibody, and flow cells 3 and 4 contained antibody and captured Parkin. […]
as §1
Kinetic and affinity data were solvent corrected (fragments only), reference subtracted and blank subtracted using the Biacore T200 evaluation software V.1. Kinetic constants were determined by curve fitting using a 1∶1 binding model. […] The rate of complex formation (1∶1 interaction) during fragment injection was calculated according to the equation (2): [drawing 2] […] The dissociation phase kd was measured using the rate of decline in RU after the injection stop, when free running buffer is flowing over the surface. Data were simultaneously fitted by the software and the dissociation constant KD calculated using equation (3). […] (3) Ligand efficiency (LE, Δg) was calculated as the binding energy of ligand per atom (equation 4) [drawing 4] […]

Kd [1]: 4.7 µM | Kd [2]: 8.1 µM
Substance: UbcH7: Ubiquitin conjugating enzyme E2, non-tagged, purified in house
